Data on 1 molecule can be found in ChEMBL document CHEMBL1124573, “Alterations in the stereochemistry of the kappa-selective opioid agonist U50,488 result in high-affinity sigma ligands” (1989).

This test can be described thus: Selectivity ratio for affinities determined by using [3H]BREM and [3H]-(+)-3-PPP in guinea pig ileum.

`CN(C(=O)Cc1ccc(Cl)c(Cl)c1)[C@H]1CCCC[C@@H]1N1CCCC1`: the Ratio was found to be 0.07.
